Results as given in patent publication US4960770A, “2-alkyl thieno(triazolo)diazepine compounds and pharmaceutical uses thereof” (Yoshitomi Pharmaceutical Industries, Ltd., priority 1987, dated 1990).

Tested on: PAF-induced lethal shock
Assay: Effect of PAF-induced lethal shock in mice
Assay type: in vivo, male ICR mice
Conditions: 1 hour before PAF 80 μg/kg i.v., 24 hours
Method: The experiment was carried out according to the method of Young et al. described in Prostaglandins, vol. 30, p. 545 (1985). Groups of 9 to 15 male ICR mice (Charles River) weighing 25-30 g were used. 80 μg/kg of PAF (Serdary Research Labo.) solution was intravenously administered in a lateral tail vein 1 hour after the oral administration of test compound (0.1 ml/10 g). […] Results were given as number of survivors/number of employed animals and survival rates (%) in Table 4.

CCc1cc2c(s1)-n1c(C)nnc1CN=C2c1ccccc1Cl [Etizolam, 6-(o-chlorophenyl)-8-ethyl-1-methyl-4H-s-triazolo[3,4-c]thieno[2,3-e][1,4]diazepine, reference compound]
Number of Survivors/Number of Animals (1 mg/kg p.o.): 1/11 | Survival rate (1 mg/kg p.o.): 9.1% | Number of Survivors/Number of Animals (3 mg/kg p.o.): 3/11 | Survival rate (3 mg/kg p.o.): 27.3% | Number of Survivors/Number of Animals (10 mg/kg p.o.): 6/11 | Survival rate (10 mg/kg p.o.): 54.5%
